Results published in PubChem BioAssay AID441 (NMMLSC, 2006).
The list shows a part of the results, in another mix than the full data. The source made the active and inactive calls. No stated cut-off is given here; in the data, active means inhibition above about 30%; inconclusive means no clear call, values can overlap the other calls; inactive means below that.

The chains behind the UniProt entries cited, without tags or fusion partners.
UniProt P25090, whole entry: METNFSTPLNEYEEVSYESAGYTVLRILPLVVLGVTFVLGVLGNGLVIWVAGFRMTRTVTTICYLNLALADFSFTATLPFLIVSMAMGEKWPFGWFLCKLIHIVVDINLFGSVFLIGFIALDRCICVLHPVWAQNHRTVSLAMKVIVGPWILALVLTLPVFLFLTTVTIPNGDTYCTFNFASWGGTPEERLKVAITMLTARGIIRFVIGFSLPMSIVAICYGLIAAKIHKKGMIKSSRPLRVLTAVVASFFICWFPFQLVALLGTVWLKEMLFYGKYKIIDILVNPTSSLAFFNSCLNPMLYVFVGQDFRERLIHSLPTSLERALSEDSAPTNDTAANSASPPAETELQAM

Each compound was assayed against N-formyl peptide receptor 2 (Homo sapiens) (UniProt P25090) (assay: small molecules displacing FPRL1 fluorescent ligand – cell-based, FPR counter-screen, flow cytometry, primary screen (AID 441;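 further: 0% = buffer alone and 100% = receptor blocker peptide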)). Details: FPRL1-expressing cells, fluorescent ligand binding inhibition, active compounds read high, concentration not given here.

Row | Structure (SMILES) | inhibition
1 | Clc1n[nH]nc1-c1nn[nH][15n]1 | inactive: 7.4%
2 | Cc1nn(-c2ccccc2)c2c1P(=O)(N1CCOCC1)N(C)C(c1ccccc1)=N2 (centres undefined) | inactive: 4.3%
3 | CCOP1(=S)c2c(C)nn(CCC#N)c2N=C(c2ccccc2F)N1C (centres undefined) | inactive: 2.4%
4 | Cc1ccc(C)c(NP(C)(=O)Oc2ccccc2)c1 (centres undefined) | inactive: -1.2%
5 | CP(=S)(Nn1cnnc1)Oc1ccccc1 (centres undefined) | inactive: -0.1%
6 | O=C(COc1ccccc1)OC1CN2CCC1CC2 (centres undefined) | inactive: -1%
7 | COP1(=S)c2c(C)nn(CCC#N)c2N=C(c2ccc(F)cc2)N1C (centres undefined) | inactive: -1.1%
8 | CCc1nc2c(n1)c1c(non1O)c1c2no[n+]1[O-] | inactive: 7.6%
9 | Cc1nc2ccc3ccccc3c2o1.O=[N+]([O-])c1cc([N+](=O)[O-])c(O)c([N+](=O)[O-])c1 | inactive: 8.6%
10 | CP(=O)(Nc1ccccn1)Oc1ccccc1 (centres undefined) | inactive: 2%
11 | CN(C)CCOC(=O)C(O)(c1ccccc1)C1CCCCC1 (centres undefined) | active: 54%
12 | Cc1ccccc1NP(C)(=O)Nc1ccccc1C | inactive: 6.8%
13 | CP(=O)(Nc1ccc2c(c1)OCCO2)Oc1ccccc1 (centres undefined) | inactive: -2.5%
14 | O=P(Nc1nccs1)(c1ccccc1)c1ccccc1 | inactive: -4.1%
